## scFv variants of Ab-14 (heavy chain) against a SARS-CoV-2 spike peptide

All variants were tested on one target, the spike HR2 peptide PDVDLGDISGINAS (SARS-CoV-2).

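This is the validation round: designs drawn from the data on random variants, tested in the same kind of assay. Their group label is 14H_En_Gen (En: ensemble of fine-tuned language models; Gen: genetic algorithm). AlphaSeq pools MATa yeast showing the antibodies with MATalpha yeast showing the peptide. The frequency of each diploid, read from paired DNA barcodes, reflects how well the two displayed proteins bind. Read counts were normalised to the haploid input and turned into Kd by a linear fit to BCL2-family pairs of known affinity, for each replicate. There are six technical replicates.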

Parent: Ab-14, a human scFv built as VH, a 15-residue (Gly4Ser)3 linker, VL. Only the CDRs of the heavy chain vary.
VH: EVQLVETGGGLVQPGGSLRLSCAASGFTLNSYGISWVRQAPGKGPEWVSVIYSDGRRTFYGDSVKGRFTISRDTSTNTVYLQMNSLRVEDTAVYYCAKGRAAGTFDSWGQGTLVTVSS
VL: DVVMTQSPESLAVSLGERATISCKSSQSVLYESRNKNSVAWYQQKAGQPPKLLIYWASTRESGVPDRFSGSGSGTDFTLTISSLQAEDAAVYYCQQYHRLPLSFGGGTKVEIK

The parent's heavy chain CDRs are GFTLNSYGIS, VIYSDGRRTFYGDSVK, GRAAGTFDS; each variant's own CDRs replace them letter for letter. The read-out is the apparent dissociation constant on a log10 scale (nM): the lower, the stronger. A mean of the replicates is given; it leaves out those without a signal. "ND" marks a missing value. The strain was present, yet no cells mated with the target were sequenced in that replicate, which points to weak or no binding. The authors averaged sequences with at least three values out of six and counted those with two or fewer as poor binders. Three control strains display no target. For all heavy chain designs, 1% of the pairings with them gave a signal, with a median of 2.08 and one signal in twenty below 0.84, so weak values seen in few replicates may be background. Also given: how often the same scFv was detected with the empty control strains, with their mean in brackets. A sequence measured in both rounds can read differently, since the two assays cover different ranges.

| CDR-H1 | CDR-H2 | CDR-H3 | log10 Kd, replicates | mean, log10 nM | empty controls |
|---|---|---|---|---|---|
| GFDLNEYGIS | VIYADGQRTAYADSVK | GNTAGTFDL | ND 1.63 1.03 ND ND ND | 1.33 | 0 of 18 |
| GFDLDEYGIS | VIYADGRRQAYADSVK | GENAGTFDV | -0.42 -0.54 -0.34 -1.05 -0.62 -0.56 | -0.59 | 0 of 18 |
| GFDLDEYGIS | VIYADGKRTAYADSVK | GEVAGTFDA | -0.50 0.10 -0.17 -0.56 1.59 -0.21 | 0.04 | 0 of 18 |
| GFDLNEYGIS | VIYADGVRKAYIDSVK | GNVAGTFDV | -0.72 -0.71 -0.13 -0.54 -0.65 -0.17 | -0.49 | 0 of 18 |
| GFDLNEYGIS | VIYADGVRTAYADNVK | GNQAGTFDI | -0.14 -0.73 -0.50 -0.57 -0.12 0.47 | -0.26 | 0 of 18 |
| GFDLDEYGIS | VIYADGKRTAYTDSVK | GNVAGTFDL | 0.21 0.23 -0.45 -0.33 0.00 -0.35 | -0.11 | 0 of 18 |
| GFDLNEYGIS | VIYADGIRTAYADSVK | GENAGTFDI | 0.39 0.02 0.61 -0.39 ND -0.09 | 0.11 | 0 of 18 |
| GFDLNEYGIS | VIYADGKRTYYADSVK | GENAGTFDQ | 0.02 -0.22 -0.23 0.08 -0.40 -0.01 | -0.13 | 1 of 18 (1.13) |
| GFDLNEYGIS | VIYADGRRTAYADSVK | GNVAGTFDM | -0.17 -0.26 -0.67 -0.58 0.16 -0.22 | -0.29 | 0 of 18 |
| GFDLNEYGIS | VIYADGMRTYYADSVK | GGNAGTFDV | -0.42 -0.28 -0.24 -0.18 -0.29 -0.12 | -0.26 | 0 of 18 |
| GFDLNEYGIS | VIYADGVRKAYSDSVK | GNVAGTFDL | -0.53 -0.69 -0.54 -0.66 -0.88 -0.38 | -0.61 | 0 of 18 |
| GFDLNEYGIS | VIYADGVRTAYADSVK | GETAGTFDT | -0.27 -0.62 -0.61 -0.64 -0.55 0.12 | -0.43 | 0 of 18 |
| GFDLNEYGIS | VIYADGMRTFYADSVK | GQNAGTFDV | -0.55 -0.66 -0.41 -0.79 -0.77 -0.39 | -0.60 | 1 of 18 (2.32) |
| GFDLDEYGIS | VIYADGMRTAYSDSVK | GNTAGTFDV | -0.06 -0.56 -0.37 -0.43 -0.69 -0.14 | -0.38 | 0 of 18 |
| GFDLNEYGIS | VIYADGKRTAYIDSVK | GSNAGTFDV | -0.60 -0.73 -0.93 -0.70 -1.00 -0.71 | -0.78 | 0 of 18 |
| GFDLDEYGIS | VIYADGLRTAYADSVK | GEVAGTFDV | -0.33 -0.31 -0.45 -0.41 -0.59 -0.45 | -0.42 | 0 of 18 |
| GFDLDEYGIS | VIYADGMRTAYSDSVK | GNTAGTFDQ | 0.10 -0.11 -0.74 -0.88 -0.59 -0.62 | -0.48 | 0 of 18 |
| GFDLEEYGIS | VIYADGKRTAYADSVK | GNVAGTFDI | 0.16 -0.72 -0.77 ND -1.04 -0.36 | -0.55 | 0 of 18 |
| GFDLDEYGIS | VIYADGMRTAYADDVK | GNEAGTFDL | 0.01 -0.10 0.44 0.16 0.28 0.05 | 0.14 | 1 of 18 (1.20) |
| GFDLNEYGIS | VIYADGVRTAYADNVK | GEVAGTFDL | 0.53 1.42 0.97 1.81 1.73 1.69 | 1.36 | 0 of 18 |
| GFDLNEYGIS | VIYADGKRTAYADKVK | GNQAGTFDV | ND ND ND -0.22 ND 0.76 | 0.27 | 0 of 18 |
| GFDLNEYGIS | VIYADGRRTVYADSVK | GEVAGTFDV | -0.12 -0.53 -0.46 -0.94 -0.57 -0.48 | -0.52 | 0 of 18 |
| GFDLNEYGIS | VIYADGRRTAYADSVK | GNTAGTFDL | -0.26 -0.50 -0.37 -0.37 -0.53 -0.37 | -0.40 | 0 of 18 |
| GFDLNEYGIS | VIYADGQRSAYADSVK | GNVAGTFDV | -0.34 -0.57 0.10 -0.91 -1.29 -1.03 | -0.68 | 0 of 18 |
| GFDLDEYGIS | VIYADGQRKAYADSVK | GNVAGTFDI | -0.23 -0.84 -1.03 -0.83 -0.61 -0.56 | -0.68 | 0 of 18 |
| GFDLDEYGIS | VIYADGMRTAYSDDVK | GNVAGTFDT | -0.84 -0.79 -1.43 -0.98 -0.76 -1.25 | -1.01 | 0 of 18 |
| GFDLNEYGIS | VIYADGMRTAYSDSVK | GGNAGTFDL | ND -0.02 -0.45 0.33 -0.33 ND | -0.12 | 0 of 18 |
| GFDLNEYGIS | VIYADGMRTAYVDSVK | GNEAGTFDI | 0.64 0.27 0.24 0.09 0.23 0.78 | 0.38 | 1 of 18 (3.68) |
| GFDLEEYGIS | VIYADGMRTAYADSVK | GEVAGTFDV | -0.18 -0.36 -0.28 -0.30 -0.34 -0.27 | -0.29 | 1 of 18 (2.98) |
| GFDLNEYGIS | VIYADGQRTAYADSVK | GGNAGTFDQ | -0.22 0.00 -0.58 -0.44 -0.17 -0.11 | -0.25 | 0 of 18 |
| GFDLNEYGIS | VIYADGKRTAYADNVK | GNNAGTFDV | -0.32 -0.37 -0.33 -0.37 -0.21 -0.08 | -0.28 | 0 of 18 |
| GFDLNEYGIS | VIYADGVRTAYVDSVK | GNQAGTFDI | 1.13 ND ND 2.42 ND 2.32 | 1.96 | 0 of 18 |

Reference: Li et al. 2023, doi:10.1038/s41467-023-39022-2. File: FLAb, binding data.